According to PubChem BioAssay (Tox21):
Several values for one entry are separate records, joined by “and”; a condition that tells them apart may be missing. Where a call stands in place of a potency, no number is given. Equal entries are not always repeated. This is a selection; strong and weak results do not stand in their true shares. Inconclusive results are not listed. A structure can be active in one record and inactive in another. Activity calls are given as the source filed them. Calls come from the whole dose curve; as a rule, active = well fitted activation curve with a large enough effect in the repeat runs; inconclusive = weak or mixed curves; inactive = flat fitted curve, though single readings scatter.

Test: A CellTox Green Cytotoxicity Assay to monitor cytotoxicity in HEK293 cells - 40 hour (AID 1224871); note: nearly all actives have a fitted effect of over 45% in size
Conditions: CellTox Green fluorescence; series mostly up to 76.8 µM
Source text: National Center for Advancing Translational Sciences [NCATS]
NIH Chemical Genomics Center [NCGC]
U.S. Environmental Protection Agency [EPA]
National Institutes of Environmental Health Sciences [NIEHS]
National Toxicology Program [NTP]
Cell-based models are critical for drug discovery. Determining the natural cytotoxic effects resulting from test compounds is an essential research activity. A CellTox Green Cytotoxicity Assay to monitor cytotoxicity in real time of continues cell culture during 40 hours of the compound treatment was used to screen Tox21 10K library compounds in Hek293 cells. CellTox Green Cytotoxicity Assay is a nonlytic, homogeneous, biofluorescent method to measure cytotoxicity in cell culture after experimental manipulation. The assay system uses a proprietary asymmetric cyanine dye that is excluded from viable cells but preferentially stains the dead cell's DNA. […] Viable cells produce no appreciable increases in fluorescence. Therefore, the fluorescence signal produced by the binding interaction with dead cell DNA is proportional to cytotoxicity.
The mixture of Hek293 cell suspension and reagents were dispensed at 600cells/6 ul/well in 1536-well tissue culture treated black solid bottom plates using a Multidrop dispenser. After the assay plates were incubated at a 37 C/5% CO2 incubator for 5 hours, 23 nL of compounds dissolved in DMSO, positive and negative controls was transferred to the assay plate by a pintool work station. The plates were incubated at 37 C for 40 hours. The fluorescence intensity were measured at 0h, 8h, 16h, 24h, 32h and 40h time points using ViewLux plate reader during compound treatment.
Potency is the fitted concentration of half-maximal effect.

| Structure (SMILES) | Potency |
| --- | --- |
| O=[N+]([O-])[O-].[NH4+] | inactive and active: 38.9 µM |
| CCOP(=O)(CC)OCC | inactive |
| Cc1cccc([N+](=O)[O-])c1[N+](=O)[O-] | inactive |
| N#CBr | inactive |
| OCCSCCO | inactive |
| CN(C)CCCl | inactive |
| COc1ccc([N+](=O)[O-])cc1[N+](=O)[O-] | inactive |
| CCN(CC)CCCl | inactive |
| C/C1=C2N=C(/C=C3N=C(/C(C)=C4\[N-][C@@](C)([C@@H]5N=C1[C@](C)(CCC(=O)NC[C@@H](C)OP(=O)([O-])O[C@H]1[C@@H](O)[C@@H](n6cnc7cc(C)c(C)cc76)O[C@@H]1CO)[C@H]5CC(N)=O)[C@@](C)(CC(N)=O)[C@@H]4CCC(N)=O)[C@@](C)(CC(N)=O)[C@@H]\3CCC(N)=O)C(C)(C)[C@@H]/2CCC(N)=O.[C-]#N.[Co+3] | inactive |
| CCOP(=O)(CC)Oc1ccc([N+](=O)[O-])cc1 (centres undefined) | inactive |
| Nc1cc([N+](=O)[O-])cc([N+](=O)[O-])c1O | inactive |
| CC(C)N(CCO)C(C)C | inactive |
| N=C(N)N[N+](=O)[O-] | inactive |
| [NH4+].[O-][Cl+3]([O-])([O-])[O-] | inactive |
| Cc1ccc([N+](=O)[O-])cc1[N+](=O)[O-] | inactive |
| CC(C)OP(C)(=O)OC(C)C | inactive |
| CP(=O)(O)OCCC[Si](O)(O)O | inactive |
| Cc1c([N+](=O)[O-])cccc1[N+](=O)[O-] | inactive |
| COP(C)(=O)OC | inactive |
